From patent US20020061836A1

Key:
[1] = tested on: CYP2C8 mRNA; details: hepatocytes
[2] = tested on: MDR1 mRNA; assay: Northern analysis of MDR1 expression in human LS180 cells
[3] = target: T1, human SXR ligand binding domain (Homo sapiens, UniProt O75469); assay: Gal-L-SXR (Gal-SXR) Gal4 reporter transient transfection assay in CV-1 cells; details: 2.5 μM hyperforin, 10 μM rifampicin, 3 μM ritonavir, 10 μM PCN
T1 sequence (O75469 107-434 limits assumed): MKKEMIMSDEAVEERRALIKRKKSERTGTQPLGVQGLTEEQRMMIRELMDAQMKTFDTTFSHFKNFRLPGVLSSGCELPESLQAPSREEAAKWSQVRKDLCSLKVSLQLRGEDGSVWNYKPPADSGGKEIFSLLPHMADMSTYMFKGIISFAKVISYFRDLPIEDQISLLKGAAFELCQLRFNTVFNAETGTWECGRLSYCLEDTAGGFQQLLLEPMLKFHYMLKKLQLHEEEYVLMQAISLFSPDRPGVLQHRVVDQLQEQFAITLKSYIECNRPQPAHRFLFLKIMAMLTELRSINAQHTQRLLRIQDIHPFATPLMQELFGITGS

hyperforin
CYP2C8 mRNA expression [1]: strongly activated
MDR1 mRNA expression [2]: very strongly induced
activation of Gal-SXR [3]: activated
